The record followed here is article PMC9477835, “Structure of the active Gi-coupled human lysophosphatidic acid receptor 1 complexed with a potent agonist” (Nature Communications, 2022).

The assay addresses T1, human lysophosphatidic acid receptor 1 (LPA1) (human, UniProt Q92633 2-364).
T1 construct: human LPA1 gene (UniProtKB Q92633) in a modified pFastBac vector; C-terminal TEV site followed by EGFP-His10; also called LPA1-GFP; the receptor; source: Sf9 insect cells (baculovirus), purified (TALON resin, SEC) in the presence of ONO-0740556; not shown: Flag, N-terminal, kept; EGFP, C-terminal, cleaved; His10, C-terminal, cleaved
T1 sequence: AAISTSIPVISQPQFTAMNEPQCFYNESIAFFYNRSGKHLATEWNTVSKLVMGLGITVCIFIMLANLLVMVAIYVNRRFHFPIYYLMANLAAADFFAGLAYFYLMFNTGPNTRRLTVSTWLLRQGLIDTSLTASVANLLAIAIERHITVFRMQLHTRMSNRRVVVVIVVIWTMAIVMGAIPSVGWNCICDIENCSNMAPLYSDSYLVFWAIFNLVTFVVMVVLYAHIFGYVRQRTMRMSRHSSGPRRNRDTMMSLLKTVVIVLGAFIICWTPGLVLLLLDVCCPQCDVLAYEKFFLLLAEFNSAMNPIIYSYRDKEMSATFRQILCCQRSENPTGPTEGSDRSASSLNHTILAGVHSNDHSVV
The experiment in a line: cryo-EM structure; LPA1, Gi heterotrimer and scFv16 purified separately and mixed (1.2 molar excess of Gi heterotrimer and scFv16) with TEV protease, apyrase and 10 µM ONO-0740556, 4 °C overnight; complex purified by M1 anti-Flag affinity and SEC in 20 mM Tris-HCl pH 8.0, 150 mM NaCl, 0.01% GDN, 1 µM ONO-0740556; stable state and four classes S1-S4. As to conditions: both partners purified.

B1: human Gαi1 subunit (natural protein)
chain: MGCTLSAEDKAAVERSKMIDRNLREDGEKAAREVKLLLLGAGESGKSTIVKQMKIIHEAGYSEEECKQYKAVVYSNTIQSIIAIIRAMGRLKIDFGDSARADDARQLFVLAGAAEEGFMTAELAGVIKRLWKDSGVQACFNRSREYQLNDSAAYYLNDLDRIAQPNYIPTQQDVLRTRVKTTGIVETHFTFKDLHFKMFDVGGQRSERKKWIHCFEGVTAIIFCVALSDYDLVLAEDEEMNRMHESMKLFDSICNNKWFTDTSIILFLNKKDLFEEKIKKSPLTICYPEYAGSNTYEEAAAYIQCQFEDLNKRKDTKEIYTHFTCATDTKNVQFVFDAVTDVIIKNNLKDCGLF
notes: WT human Gαi1 subunit; Stood in the assay as a subunit of the heterotrimer m2; also called Gi (α5-helix); source: Sf9 insect cells, co-expressed and purified as part of the Gi heterotrimer
Regarding B1, the binding result was “binds”.
